From ChEMBL document CHEMBL5058646 (2022)

Columns and labels:
[1] = biological target: T1, Transcriptional regulator Kaiso (Homo sapiens) (UniProt Q86T24); conditions: SUD4
T1 sequence (whole entry): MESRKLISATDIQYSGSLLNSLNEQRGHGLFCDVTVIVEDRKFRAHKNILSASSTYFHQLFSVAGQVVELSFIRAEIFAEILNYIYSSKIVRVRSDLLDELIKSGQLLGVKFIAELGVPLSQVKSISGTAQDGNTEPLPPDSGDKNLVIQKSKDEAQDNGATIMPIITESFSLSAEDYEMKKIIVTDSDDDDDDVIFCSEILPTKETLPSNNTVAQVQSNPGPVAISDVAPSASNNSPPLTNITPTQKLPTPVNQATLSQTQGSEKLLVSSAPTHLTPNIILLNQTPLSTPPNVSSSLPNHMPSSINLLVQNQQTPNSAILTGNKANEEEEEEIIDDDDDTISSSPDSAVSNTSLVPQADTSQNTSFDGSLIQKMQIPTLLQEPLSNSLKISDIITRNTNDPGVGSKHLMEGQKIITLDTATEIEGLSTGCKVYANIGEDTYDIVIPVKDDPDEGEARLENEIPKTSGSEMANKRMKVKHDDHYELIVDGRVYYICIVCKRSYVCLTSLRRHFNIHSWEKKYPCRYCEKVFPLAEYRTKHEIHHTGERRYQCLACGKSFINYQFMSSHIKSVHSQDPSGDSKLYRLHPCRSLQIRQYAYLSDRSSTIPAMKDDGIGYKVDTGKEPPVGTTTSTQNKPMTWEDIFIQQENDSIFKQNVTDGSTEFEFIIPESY

[2] = biological target: T2, Transcription regulator protein BACH2 (Homo sapiens) (UniProt Q9BYV9); conditions: SUD4
T2 sequence (whole entry): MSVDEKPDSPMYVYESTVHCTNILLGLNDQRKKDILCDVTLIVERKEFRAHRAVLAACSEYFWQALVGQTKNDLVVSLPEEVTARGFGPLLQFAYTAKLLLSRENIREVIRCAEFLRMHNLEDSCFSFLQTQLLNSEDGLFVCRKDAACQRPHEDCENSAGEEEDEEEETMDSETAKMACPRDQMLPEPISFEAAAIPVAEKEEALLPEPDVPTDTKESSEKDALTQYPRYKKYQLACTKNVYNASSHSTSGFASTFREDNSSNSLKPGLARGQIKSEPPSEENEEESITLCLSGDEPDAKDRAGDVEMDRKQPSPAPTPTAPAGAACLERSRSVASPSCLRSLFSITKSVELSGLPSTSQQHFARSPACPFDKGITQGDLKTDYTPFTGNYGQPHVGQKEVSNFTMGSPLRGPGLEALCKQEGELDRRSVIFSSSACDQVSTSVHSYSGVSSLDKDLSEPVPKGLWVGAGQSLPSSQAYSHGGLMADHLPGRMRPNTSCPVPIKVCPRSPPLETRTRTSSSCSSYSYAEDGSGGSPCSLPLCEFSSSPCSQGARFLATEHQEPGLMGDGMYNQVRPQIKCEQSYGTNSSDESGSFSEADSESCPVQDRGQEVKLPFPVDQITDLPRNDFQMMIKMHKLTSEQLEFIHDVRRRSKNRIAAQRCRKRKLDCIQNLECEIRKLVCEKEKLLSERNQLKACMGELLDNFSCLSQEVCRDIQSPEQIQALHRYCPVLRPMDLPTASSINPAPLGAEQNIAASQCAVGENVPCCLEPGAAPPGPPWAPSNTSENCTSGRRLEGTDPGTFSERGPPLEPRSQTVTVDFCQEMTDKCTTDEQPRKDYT

[3] = biological target: T3, Zinc finger and BTB domain-containing protein 2 (Homo sapiens) (UniProt Q8N680); conditions: OCI-Ly1
T3 sequence (whole entry): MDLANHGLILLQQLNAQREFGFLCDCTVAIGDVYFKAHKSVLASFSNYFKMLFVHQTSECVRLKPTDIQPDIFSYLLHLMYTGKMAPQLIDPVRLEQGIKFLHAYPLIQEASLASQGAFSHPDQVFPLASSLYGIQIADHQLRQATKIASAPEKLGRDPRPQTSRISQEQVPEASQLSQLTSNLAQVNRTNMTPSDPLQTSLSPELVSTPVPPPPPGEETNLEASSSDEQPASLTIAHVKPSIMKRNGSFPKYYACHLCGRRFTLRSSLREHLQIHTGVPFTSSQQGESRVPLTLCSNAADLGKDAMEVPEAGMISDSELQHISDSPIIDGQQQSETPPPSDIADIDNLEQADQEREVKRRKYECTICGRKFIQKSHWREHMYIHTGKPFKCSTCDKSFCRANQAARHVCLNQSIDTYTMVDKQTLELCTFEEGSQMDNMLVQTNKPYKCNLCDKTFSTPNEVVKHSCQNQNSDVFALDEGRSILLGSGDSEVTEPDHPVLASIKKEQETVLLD

[4] = biological target: T2, Transcription regulator protein BACH2 (Homo sapiens); conditions: OCI-Ly1
[5] = biological target: T4, Zinc finger and BTB domain-containing protein 17 (Homo sapiens) (UniProt Q13105); conditions: SUD4
T4 sequence (whole entry): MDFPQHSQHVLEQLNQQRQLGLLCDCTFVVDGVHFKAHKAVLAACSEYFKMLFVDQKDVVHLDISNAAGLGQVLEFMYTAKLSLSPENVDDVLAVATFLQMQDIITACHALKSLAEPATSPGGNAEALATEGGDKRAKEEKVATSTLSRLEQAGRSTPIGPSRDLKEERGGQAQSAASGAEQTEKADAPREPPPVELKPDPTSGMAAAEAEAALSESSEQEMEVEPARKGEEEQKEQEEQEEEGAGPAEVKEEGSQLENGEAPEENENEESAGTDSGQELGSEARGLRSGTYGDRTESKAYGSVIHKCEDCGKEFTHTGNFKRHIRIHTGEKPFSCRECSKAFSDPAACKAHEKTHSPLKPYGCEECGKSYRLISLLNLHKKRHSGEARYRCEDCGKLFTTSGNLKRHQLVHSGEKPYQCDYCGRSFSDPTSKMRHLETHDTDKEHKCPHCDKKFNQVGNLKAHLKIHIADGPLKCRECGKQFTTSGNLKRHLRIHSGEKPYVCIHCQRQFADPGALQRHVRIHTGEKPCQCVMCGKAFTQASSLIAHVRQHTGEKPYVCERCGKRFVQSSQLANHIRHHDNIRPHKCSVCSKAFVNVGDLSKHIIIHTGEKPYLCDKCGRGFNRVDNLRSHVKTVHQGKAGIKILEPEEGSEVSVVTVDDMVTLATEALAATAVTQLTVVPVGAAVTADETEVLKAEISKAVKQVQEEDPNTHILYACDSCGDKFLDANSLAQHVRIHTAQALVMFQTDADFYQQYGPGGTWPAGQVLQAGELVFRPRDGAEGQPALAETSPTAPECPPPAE

Normalized abundances for DMSO [1]: 2150
Normalized abundances for compound [1]: 2260
Normalized abundances for DMSO [2]: 2170
Normalized abundances for compound [2]: 2040
Normalized abundances for DMSO [3]: 15
Normalized abundances for compound [3]: 17.7
Normalized abundances for DMSO [4]: 521
Normalized abundances for compound [4]: 520
Normalized abundances for DMSO [5]: 273
Normalized abundances for compound [5]: 264
SMILES: C[C@@H]1CN(c2ncc(Cl)c(Nc3ccc4c(c3)n(CCC(C)(C)O)c(=O)n4C)n2)C[C@H](C)C1(F)F
